Source: patent publication US8906868B2, “Aminoglycoside derivatives” (Rempex Pharmaceuticals, Inc., priority 2010, dated 2014)

System: rats
Test: Nephrotoxicity of test compounds in rats
Conditions: 300 mg/kg/day, once daily subcutaneous

Gentamicin C1a
Histopathology Results After 14 days of Dosing: 4/4 Died
